In this experiment the target is NR2B-R (regulatory domain of NMDA receptor NR2B subunit) (Rattus norvegicus, UniProt Q00960). Put plainly: [14C]spermine filter binding to purified NR2B-R. The following applies: 40 µM [14C]spermine; % of binding with no addition.

Protein sequences, listed by entry. Tags and fused reporters are not part of them. Residues count along the entry.
UniProt Q00960, 27-390: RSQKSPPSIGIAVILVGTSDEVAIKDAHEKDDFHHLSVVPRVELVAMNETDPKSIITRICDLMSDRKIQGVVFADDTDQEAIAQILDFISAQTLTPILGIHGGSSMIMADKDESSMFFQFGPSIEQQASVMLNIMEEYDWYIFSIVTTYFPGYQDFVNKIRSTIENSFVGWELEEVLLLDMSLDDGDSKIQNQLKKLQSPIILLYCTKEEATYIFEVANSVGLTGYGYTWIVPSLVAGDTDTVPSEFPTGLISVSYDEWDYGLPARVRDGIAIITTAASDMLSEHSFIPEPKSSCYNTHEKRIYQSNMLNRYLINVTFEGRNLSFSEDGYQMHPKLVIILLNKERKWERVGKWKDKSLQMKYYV

For `NCC(=O)O` [Glycine, glycine], the “[14C]Spermine bound to NR2B-R in presence of addition, %” value was 101%.

For the origin of these results see PMC2690642 (Journal of neurochemistry, 2008).
